Measured values reported in PMC12645437, “Orthogonal IMiD-Degron Pairs Induce Selective Protein Degradation in Cells” (ACS Chemical Biology, 2025).

Key:
[1] = tested on: embryonic stem cells (ESCs); test: TMTpro quantitative proteomics, 16 h; conditions: 1 μM, of 10442 proteins assessed
Jurkat cells = test: TMTpro quantitative proteomics, 16 h; conditions: 1 μM, Welch's t test

Nc1cccc2c1C(=O)N(C1CCC(=O)NC1=O)C2=O (centres unmarked) [Compound 2, pomalidomide]
proteins significantly degraded (quantitative proteomics) [1]: approximately 25 proteins | proteins significantly degraded (quantitative proteomics) (Jurkat cells): at least 20 proteins
